pEC50: −log10 of the molar value.

Amino acid sequences for entries named in this document (tags omitted). A change or cut given only in a name is not applied to a line headed by its entry.
UniProt Q01726: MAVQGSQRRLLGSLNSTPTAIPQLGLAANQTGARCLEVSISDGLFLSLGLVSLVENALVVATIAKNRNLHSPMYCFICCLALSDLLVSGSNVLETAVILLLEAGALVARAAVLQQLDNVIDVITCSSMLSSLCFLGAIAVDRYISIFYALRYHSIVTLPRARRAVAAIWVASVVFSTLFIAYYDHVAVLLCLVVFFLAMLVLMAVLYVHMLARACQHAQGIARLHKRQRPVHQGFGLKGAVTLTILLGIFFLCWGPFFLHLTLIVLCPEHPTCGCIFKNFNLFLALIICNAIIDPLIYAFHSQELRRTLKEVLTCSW

This test addresses MC1R (Homo sapiens, UniProt Q01726). The test can be described thus: cAMP assay (human receptors), DiscoverX HitHunter, MC1R. The following applies: read-out: MC1R EC50, HEK293. (In general: Changes in cAMP serve as a functional read-out for many G protein-coupled receptors.)

What is called pEC50 is the EC50 on a negative log10 scale, so that one unit is a factor of ten. Regarding a-MSH, the pEC50 was 8.62.

Source of the values: patent US20250361273A1, “METHODS AND COMPOSITIONS” (priority 2024, published 2025).
